Broadly, the pKi is −log10 of the Ki, conventionally taken in molar units. Low readings indicate a high Ki, high ones a low Ki.

The assay concerns the target human Kappa (κ) opioid receptor (human), P41145. In words: radioligand binding; displacement of ~0.8 nM [3H]-DPN from CHOhMu, CHOhDelta or CHOhKappa membranes (40 μg protein) in 0.5 ml 50 mM Tris, 0.5% BSA; displacing ligand 10 μM-1 pM; non-specific binding with 10 μM naloxone; 1 hr at room temperature; filtration; 50% displacement corrected for the radioligand to give pKi.

Molecule YGGFLRRIRPKLKWDNQ (modifications not checked) [Dynorphin-A] registered a pKi of 10.2.

(Values after publication PMC4896453.)
